According to ChEMBL document CHEMBL2346625 (Bioorg Med Chem, 2013):

How the values were obtained:
[1] = biological target: T1, Streptokinase (Streptococcus pyogenes) (UniProt P96471); assay: Inhibition of Streptococcus pyogenes UMAA2616 streptokinase assessed as cleavage of S-2403 to colored product p-nitroaniline at 50 uM after 2 hrs relative to control
T1 sequence (whole entry): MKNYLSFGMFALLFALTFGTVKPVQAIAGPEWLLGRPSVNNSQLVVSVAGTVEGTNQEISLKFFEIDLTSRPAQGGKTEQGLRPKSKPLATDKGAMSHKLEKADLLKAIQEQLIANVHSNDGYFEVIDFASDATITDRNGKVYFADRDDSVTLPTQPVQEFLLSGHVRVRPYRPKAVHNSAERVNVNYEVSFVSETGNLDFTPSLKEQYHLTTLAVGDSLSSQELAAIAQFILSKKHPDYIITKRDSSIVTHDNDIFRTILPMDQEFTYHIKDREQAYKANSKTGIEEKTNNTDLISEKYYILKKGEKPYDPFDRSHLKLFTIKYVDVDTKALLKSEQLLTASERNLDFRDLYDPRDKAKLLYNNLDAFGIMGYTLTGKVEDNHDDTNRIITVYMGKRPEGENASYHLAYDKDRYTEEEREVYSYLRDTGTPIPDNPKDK
Outline: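 UMAA2616 grown in THY (0.1% DMSO, compound at 5 or 50 μM) at 37 °C to OD600 ≈ 1.0, then centrifuged. Supernatant mixed with PBS, human plasma and S-2403 plasmin substrate and incubated 2 h at 37 °C; A405 read. Activity came from a DMSO-culture standard curve, was corrected for growth by OD600 and expressed as test/control. Mean of at least three experiments ± SD.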

Streptokinase = biological target: T2, Streptokinase (Streptococcus pyogenes, UniProt P96471)
T2 sequence (P96471 whole entry): T1 sequence (whole entry)

Row | Structure (SMILES) | T/C [1] | IC50 (Streptokinase)
1 | C=CCn1c(SCCO)nc2c(c1=O)C(C)(C)Cc1ccccc1-2 | inactive | –
2 | C=CCn1c(NCC)nc2c(c1=O)C(C)(C)Cc1ccccc1-2 | inactive | –
3 | CCn1c(SCCOC)nc2c(c1=O)C(C)(C)Cc1ccccc1-2 | inactive | –
4 | C=CCn1c(SCc2ccccc2)nc2c(c1=O)C(C)(C)Cc1ccccc1-2 | – | 10.8 µM

The source made the active and inactive calls. The calls are words filed in the database; no cut-off is given here.
